Results from publication PMC12088423 (Proceedings of the National Academy of Sciences of the …, 2025).

System: G11 heterotrimers activated via muscarinic acetylcholine receptor M3

C[N+](C)(C)CCOC(N)=O [carbachol]
activation potency: comparable across all mutations
